Sequences of proteins named here, by UniProt entry; tags and fusion partners are left off. Residues count along the entry.
UniProt Q8NET8, whole entry: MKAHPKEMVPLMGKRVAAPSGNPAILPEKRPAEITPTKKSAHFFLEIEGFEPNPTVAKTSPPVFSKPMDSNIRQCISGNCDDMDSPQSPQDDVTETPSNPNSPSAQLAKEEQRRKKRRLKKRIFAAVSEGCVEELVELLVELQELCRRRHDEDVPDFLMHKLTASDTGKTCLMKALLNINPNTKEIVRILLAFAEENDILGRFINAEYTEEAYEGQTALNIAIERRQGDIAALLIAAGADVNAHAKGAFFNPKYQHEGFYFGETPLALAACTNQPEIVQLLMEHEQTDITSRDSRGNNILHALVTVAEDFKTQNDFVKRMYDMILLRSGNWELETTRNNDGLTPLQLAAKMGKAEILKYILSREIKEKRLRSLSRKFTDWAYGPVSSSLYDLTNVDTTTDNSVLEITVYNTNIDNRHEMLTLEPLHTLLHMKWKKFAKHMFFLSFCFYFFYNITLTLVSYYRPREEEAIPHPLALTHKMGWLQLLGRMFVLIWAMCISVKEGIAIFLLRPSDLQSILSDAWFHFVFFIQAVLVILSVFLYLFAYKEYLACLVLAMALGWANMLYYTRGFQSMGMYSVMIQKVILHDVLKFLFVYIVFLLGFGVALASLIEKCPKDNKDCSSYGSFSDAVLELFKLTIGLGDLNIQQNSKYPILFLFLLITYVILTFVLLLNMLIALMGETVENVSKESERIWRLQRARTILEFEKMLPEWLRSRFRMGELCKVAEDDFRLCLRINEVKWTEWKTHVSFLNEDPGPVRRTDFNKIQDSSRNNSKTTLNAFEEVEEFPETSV
UniProt Q4QYD9, 1-791: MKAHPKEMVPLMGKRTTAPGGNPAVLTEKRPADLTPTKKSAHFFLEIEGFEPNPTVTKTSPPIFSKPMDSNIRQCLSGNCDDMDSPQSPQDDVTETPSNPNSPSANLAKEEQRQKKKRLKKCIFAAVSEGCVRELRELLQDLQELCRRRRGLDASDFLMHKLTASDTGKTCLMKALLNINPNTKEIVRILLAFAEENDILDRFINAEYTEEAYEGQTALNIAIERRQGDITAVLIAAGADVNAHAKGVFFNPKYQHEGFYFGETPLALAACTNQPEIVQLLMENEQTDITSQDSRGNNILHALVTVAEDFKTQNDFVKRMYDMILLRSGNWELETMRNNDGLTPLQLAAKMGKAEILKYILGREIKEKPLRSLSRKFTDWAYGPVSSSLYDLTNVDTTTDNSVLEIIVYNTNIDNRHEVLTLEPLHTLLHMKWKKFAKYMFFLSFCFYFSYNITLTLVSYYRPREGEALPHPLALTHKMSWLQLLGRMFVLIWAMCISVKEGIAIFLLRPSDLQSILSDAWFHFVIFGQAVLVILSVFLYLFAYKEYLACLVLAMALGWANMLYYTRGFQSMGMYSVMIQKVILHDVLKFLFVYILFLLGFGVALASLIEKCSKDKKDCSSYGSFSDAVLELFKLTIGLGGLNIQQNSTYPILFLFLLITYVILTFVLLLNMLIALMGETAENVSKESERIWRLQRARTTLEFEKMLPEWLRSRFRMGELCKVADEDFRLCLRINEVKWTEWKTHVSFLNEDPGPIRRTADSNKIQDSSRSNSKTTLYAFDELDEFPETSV

In patent US9486455B2, “Compounds for modulating TRPV3 function” (HYDRA BIOSCIENCES, INC., priority 2007, dated 2016):

Tests used:
human (h) TRPV3 = human (h) TRPV3 (Homo sapiens, UniProt Q8NET8); assay: Whole-cell patch clamp, human TRPV3-mediated currents
Excerpt: (§1) Whole-cell patch clamp experiments permit the detection of currents through the TRPV3 channel in the cell line described above. A glass electrode is brought into contact with a single cell and the membrane is then ruptured, permitting control of the voltage of the cell membrane and measurement of currents flowing across the membrane using the amplifier attached to the electrode. A perfusion system permits control of the extracellular solution, including the addition of blockers and activators of the current. The current can be activated by heating this solution to 28° C. or warmer or by addition of 20 μM 2-APB to the solution.
(§2) TRPV3 cells were induced 20-48 hours, removed from growth plates, and replated at low density (to attain good single-cell physical separation) on glass coverslips for measurement. In some cases, cells were grown in low density overnight on glass coverslips. Patch clamp recordings were made in the whole-cell mode with a holding potential of −40 mV. Every 5 seconds, a voltage ramp was applied from −120 to +100 mV, 400 ms in duration. Currents elicited were quantified at −80 mV and +80 mV. The internal solution consisted of 140 mM cesium aspartate, 10 mM EGTA, 2.27 mM MgCl2, 1.91 mM CaCl2 and 10 mM HEPES, pH to 7.2 with KOH; with 50 nM calculated free Ca^2+. External solution was Ringer's solution described above. Upon addition of 2-APB or upon heating of the extracellular solution as described above, TRPV3 current was induced only in TRPV3-expressing cells and not in parental HEK293 TREx cells. […] Removal of the stimulus caused most of the current to go away, and inhibitor addition could still inhibit this current. Compounds of interest were tested against TRPV3 at concentrations up to 30 μM, and the resulting data was used to estimate IC50 for inhibition of the Phase 1 and Phase 2 TRPV3-mediated currents.
(§3) P1 refers to the Phase 1 current for human (h) and rat (r) TRPV3, and P2 refers to the Phase 2 current for human (h) and rat (r) TRPV3.

rat (r) TRPV3 = rat (r) TRPV3 (Rattus norvegicus, UniProt Q4QYD9); assay: Whole-cell patch clamp, rat TRPV3-mediated currents
Excerpt: as §1, §2, §3

[1] = read-out: P1 In (h), Phase 1 inward current
[2] = read-out: P1 Out (h), Phase 1 outward current
[3] = read-out: P1 In (r), Phase 1 inward current
[4] = read-out: P1 Out (r), Phase 1 outward current
[5] = read-out: P2 In (h), Phase 2 inward current
[6] = read-out: P2 Out (h), Phase 2 outward current

SMILES	IC50 (human (h) TRPV3; [1])	IC50 (human (h) TRPV3; [2])	IC50 (rat (r) TRPV3; [3])	IC50 (rat (r) TRPV3; [4])	IC50 (human (h) TRPV3; [5])	IC50 (human (h) TRPV3; [6])	IC50 (rat (r) TRPV3; read-out: P2 In (r), Phase 2 inward current)	IC50 (rat (r) TRPV3; read-out: P2 Out (r), Phase 2 outward current)
Cc1cccc(C)c1-n1c(/C=C/c2cc(F)ccc2O)nc2cnccc2c1=O	≤ 10 µM	≤ 5 µM						
COc1nccc(/C=C/c2nc3ccccc3c(=O)n2-c2c(F)cccc2F)c1O	≤ 0.5 µM	≤ 0.5 µM	≤ 0.5 µM	≤ 0.5 µM	≤ 0.5 µM	≤ 0.5 µM		
Cc1cccc(C)c1-n1c(/C=C/c2cnc(N)nc2)nc2cnccc2c1=O	≤ 5 µM	≤ 5 µM						
CCOc1nccc(/C=C/c2nc3ccccc3c(=O)n2-c2c(F)cccc2F)c1O	≤ 0.5 µM	≤ 0.5 µM	≤ 0.5 µM	≤ 0.5 µM	≤ 0.5 µM	≤ 0.5 µM	≤ 0.5 µM	≤ 0.5 µM
Cc1nc2cccc(/C=C/c3nc4cnccc4c(=O)n3-c3c(C)cccc3C)c2[nH]1	≤ 10 µM	≤ 10 µM						
COc1cccc(C(=O)Nc2nc3ccccc3c(=O)n2-c2c(C)cccc2C)c1O	≤ 10 µM	≤ 10 µM			≤ 10 µM	≤ 10 µM		

Like-named read-outs stand apart in the source and are kept apart here.
